Measured values as given in ChEMBL document CHEMBL5038639, “Designed Peptide Inhibitors of STEP Phosphatase-GluA2 AMPA Receptor Interaction Enhance the Cognitive Performance in Rats” (J Med Chem, 2022).

Experiments:
[1] = system: Rattus norvegicus; experiment: Antidepressant activity in Wistar rat model of scopolamine-induced depressive like behavior assessed as increased swimming time at 1 mg/kg measured after 24 hrs by forced swimming test; type: functional, organism-based
[2] = system: Rattus norvegicus; experiment: Antidepressant activity in Wistar rat model of scopolamine-induced depressive like behavior assessed as decrease in immobility time at 1 mg/kg measured after 24 hrs by forced swimming test; type: functional, organism-based

CN(C)CCCN1c2ccccc2CCc2ccccc21
Activity [1]: Active
Activity [2]: Active

Calls of active or inactive are those of the source. No cut-off for these calls is given here.
